From patent US20240400692A1, “CELIAC DISEASE EPITOPES” (NEXTERA AS, priority 2021, published 2024)

What was measured:
107 antibody = experiment: FACS of antibody binding to peptides pulsed onto DQ2.5+ Raji cells, 107 antibody; assay type: cell-based; conditions: 50 μM peptide pulsed onto human DQ2.5+ Raji cells
Method: (§1) Assessment of antibody binding to the A0A0E3SZN6_TRIUA epitope candidate. […] The indicated peptides (50 μM) were pulsed onto human DQ2.5*Raji cells and antibody binding was tested in FACS as described (B).
(§2) Assessment of antibody binding to the physiological relevant forms of the A0A0E3SZN6_TRIUA epitope candidate. The T. urartuA0A0E3SZN6_TRIUA (A) and T. aestivum Q9M4L6_WHEAT (B) sequences were in silico digested with tryspin and chymotrypsin, and the relevant digested fragments shown underlined (A and B). […] The known P positions are indicated (C). The indicated peptides were pulsed (50 μM) onto human DQ2.5*Raji cells and antibody binding was tested in FACS as described (D).
(§3) To identify putative gliadin-derived sequences different from, but with similarity to, the 30 DOQ.2.5-glia-α1a epitope (PFPQP{right arrow over (E)}LPY (SEQ ID NO:4)), the UniProtKB protein database was searched using the ScanProsite tool (https://prosite.expasyorg/scanprosite/). […] More specifically, we fixed the proline (P) in p1, the glutamine (Q) in p6, the tyrosine (Y) in p9, and P was disallowed in the position p10 after the p9 Y (underlined). To focus the output of the searches, we restricted the output to the Triticum taxonomic group. […] In some cases, Q residues were exchanged with glutamate (E) in the peptide synthesis in order to mimic positional deamidation.

4.7C antibody = experiment: FACS of antibody binding to peptides pulsed onto DQ2.5+ Raji cells, 4.7C antibody; assay type: cell-based; conditions: 50 μM peptide pulsed onto human DQ2.5+ Raji cells
Method: as §1, §2, §3

QLQPFPQPELPY (SEQ ID NO:53) [DQ2.5-glia-α1a, reference compound]
binding of 107 antibody to peptide-pulsed Raji cells (FACS) (107 antibody): low level binding
binding of 4.7C antibody to peptide-pulsed Raji cells (FACS) (4.7C antibody): low level binding
